Literature values in patent publication US7465549B2 (UCB, S.A., priority 2002, dated 2008).

By UniProt entry, the sequences of proteins in these tests, tags left out.
UniProt Q02563, whole entry: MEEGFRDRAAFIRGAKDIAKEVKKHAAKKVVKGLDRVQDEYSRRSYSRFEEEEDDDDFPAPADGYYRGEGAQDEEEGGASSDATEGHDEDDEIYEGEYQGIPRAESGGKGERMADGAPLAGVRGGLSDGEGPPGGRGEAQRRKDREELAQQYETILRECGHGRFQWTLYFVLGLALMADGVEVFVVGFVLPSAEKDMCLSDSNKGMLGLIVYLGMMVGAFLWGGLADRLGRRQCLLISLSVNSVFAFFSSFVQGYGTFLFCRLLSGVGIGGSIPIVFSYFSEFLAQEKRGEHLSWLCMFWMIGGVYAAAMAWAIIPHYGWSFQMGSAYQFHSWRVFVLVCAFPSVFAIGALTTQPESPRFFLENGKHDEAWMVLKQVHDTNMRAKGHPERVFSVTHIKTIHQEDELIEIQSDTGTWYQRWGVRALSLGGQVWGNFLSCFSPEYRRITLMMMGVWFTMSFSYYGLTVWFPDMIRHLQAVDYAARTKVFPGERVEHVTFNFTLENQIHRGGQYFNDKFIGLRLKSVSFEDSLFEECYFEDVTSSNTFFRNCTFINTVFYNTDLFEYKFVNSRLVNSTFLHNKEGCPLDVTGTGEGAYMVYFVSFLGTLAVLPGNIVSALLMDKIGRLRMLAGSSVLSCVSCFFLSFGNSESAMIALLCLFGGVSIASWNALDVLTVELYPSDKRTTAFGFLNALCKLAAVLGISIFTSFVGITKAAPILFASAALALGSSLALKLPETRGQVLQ

Biological target: levetiracetam binding site (LBS) (Rattus norvegicus, UniProt Q02563)
Conditions: rat brain LBS; cited from earlier work

## t-butylbicyclophosphorothionate
  displacement of LEV binding: do not displace LEV binding
